How the values were obtained:
[1] = target: GST tagged Bcl w delta C29 protein (UniProt Q92843); test: AlphaScreen with GST detection; competitor: biotinylated Bim BH3-26 peptide
[2] = target: 6-His tagged Bcl w delta C10 protein (UniProt Q92843); test: Biacore solution competition; competitor: immobilised mouse wtBimBH3 26-mer
[3] = target: Bcl-2 ΔC22 (UniProt P10415); test: Biacore solution competition; competitor: immobilised mouse wtBimBH3 26-mer; column head prints Bcl-w ΔC22, the text Bcl-2 ΔC22

IC50 [1]: 0.1 nM
IC50 [2]: 6 nM
IC50 [3]: 2.6 nM
Substance: hsBimL/Bod (81-106) (peptide)

From patent US20070197430A1, “Conjugates And Therapeutic Uses Thereof” (priority 2004, published 2007)
